A flash point compilation (Sun et al. 2020)

What was measured:
[1] = not given; remark: listed apart in the source

Row | SMILES | flash point | flash point [1]
1 | OCCOCCOCCOCCO [2-[2-[2-(2-hydroxyethoxy)ethoxy]ethoxy]ethanol] [listing 1 of 2 here] | 204.44 °C | –
2 | CCl [chloromethane] | – | -45.00 °C
3 | OCCOCCOCCOCCO [2-[2-[2-(2-hydroxyethoxy)ethoxy]ethoxy]ethanol] [listing 2 of 2 here] | – | 182.00 °C
4 | CCOc1nc(C(Cl)(Cl)Cl)ns1 [5-ethoxy-3-(trichloromethyl)-1,2,4-thiadiazole] | – | 154.00 °C
